## Permeability data for macrocyclic peptides

Source: CycPeptMPDB (Li et al. 2023), which took these values from Furukawa et al. 2016, doi:10.1021/acs.jmedchem.6b01246.

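The data file gives no further conditions (lipid, pH, time, direction or concentration), and values from different papers need not be comparable. The list need not hold all peptides of the study. Peptides that the database sets to -10, its floor, are left out.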

PAMPA measures passive passage through an artificial lipid membrane. Permeability is in 10^-6 cm/s, converted from the database's log10 values; higher is more permeable.

For CCCC[C@@H]1NC(=O)[C@H](CC(C)C)N(C)C(=O)CN(CC2CCCCC2)C(=O)[C@@H](Cc2ccccc2)NC(=O)CN(CCCOC(C)C)C(=O)[C@H]2CCCN2C1=O the data give PAMPA 7.1 × 10^-6 cm/s.
For CCCC[C@@H]1NC(=O)[C@H](CC(C)C)N(C)C(=O)CN(CC2CCOCC2)C(=O)[C@H](Cc2ccccc2)NC(=O)CN(CC)C(=O)[C@@H]2CCCN2C1=O the data give PAMPA 3.4 × 10^-6 cm/s.
For CCCC[C@@H]1NC(=O)[C@H](CC(C)C)N(C)C(=O)CN(CC2CCOCC2)C(=O)[C@H](C)NC(=O)CN(Cc2ccc3c(c2)OCO3)C(=O)[C@H]2CCCN2C1=O the data give PAMPA 2.9 × 10^-6 cm/s.
For CCCC[C@@H]1NC(=O)[C@H](CC(C)C)NC(=O)CN(CC2CCOCC2)C(=O)[C@@H](Cc2ccccc2)NC(=O)CN(CC)C(=O)[C@@H]2CCCN2C1=O the data give PAMPA 0.058 × 10^-6 cm/s.
For CCCC[C@@H]1NC(=O)[C@H](CC(C)C)N(C)C(=O)CN(CC2CCCCC2)C(=O)[C@@H](C)NC(=O)CN(CC)C(=O)[C@H]2CCCN2C1=O the data give PAMPA 1 × 10^-6 cm/s.
For CCCCCN1CC(=O)N[C@H](CC(C)C)C(=O)N[C@@H](CCCC)C(=O)N2CCC[C@@H]2C(=O)N(CCCOC(C)C)CC(=O)N[C@H](Cc2ccccc2)C1=O the data give PAMPA 9.3 × 10^-6 cm/s.
For CCCC[C@@H]1NC(=O)[C@H](CC(C)C)NC(=O)CN(CC2CCCCC2)C(=O)[C@H](C)NC(=O)CN(CCCOC(C)C)C(=O)[C@H]2CCCN2C1=O the data give PAMPA 3.2 × 10^-6 cm/s.
For CCCC[C@@H]1NC(=O)[C@@H](CC(C)C)NC(=O)CN(CC2CCOCC2)C(=O)[C@H](C)NC(=O)CN(Cc2ccc3c(c2)OCO3)C(=O)[C@@H]2CCCN2C1=O the data give PAMPA 1.3 × 10^-6 cm/s.
For CCCCCN1CC(=O)N[C@@H](CC(C)C)C(=O)N[C@@H](CCCC)C(=O)N2CCC[C@H]2C(=O)N(CCCOC(C)C)CC(=O)N[C@H](Cc2ccccc2)C1=O the data give PAMPA 5.1 × 10^-6 cm/s.
For CCCC[C@@H]1NC(=O)[C@H](CC(C)C)N(C)C(=O)CN(CC2CCCCC2)C(=O)[C@@H](C)NC(=O)CN(Cc2ccc3c(c2)OCO3)C(=O)[C@H]2CCCN2C1=O the data give PAMPA 4.9 × 10^-6 cm/s.
For CCCC[C@@H]1NC(=O)[C@@H](CC(C)C)NC(=O)CN(CC2CCCCC2)C(=O)[C@H](C)NC(=O)CN(Cc2ccc3c(c2)OCO3)C(=O)[C@H]2CCCN2C1=O the data give PAMPA 13 × 10^-6 cm/s.
For CCCCCN1CC(=O)N(C)[C@H](CC(C)C)C(=O)N[C@@H](CCCC)C(=O)N2CCC[C@@H]2C(=O)N(CC)CC(=O)N[C@H](Cc2ccccc2)C1=O the data give PAMPA 9.8 × 10^-6 cm/s.
For CCCC[C@@H]1NC(=O)[C@@H](CC(C)C)N(C)C(=O)CN(CC2CCOCC2)C(=O)[C@@H](C)NC(=O)CN(Cc2ccc3c(c2)OCO3)C(=O)[C@H]2CCCN2C1=O the data give PAMPA 0.89 × 10^-6 cm/s.
For CCCC[C@@H]1NC(=O)[C@@H](CC(C)C)NC(=O)CN(CC2CCCCC2)C(=O)[C@H](Cc2ccccc2)NC(=O)CN(CC)C(=O)[C@@H]2CCCN2C1=O the data give PAMPA 11 × 10^-6 cm/s.
For CCCC[C@@H]1NC(=O)[C@H](CC(C)C)N(C)C(=O)CN(CC2CCCCC2)C(=O)[C@H](Cc2ccccc2)NC(=O)CN(Cc2ccc3c(c2)OCO3)C(=O)[C@@H]2CCCN2C1=O the data give PAMPA 0.22 × 10^-6 cm/s.
For CCCCCN1CC(=O)N(C)[C@@H](CC(C)C)C(=O)N[C@@H](CCCC)C(=O)N2CCC[C@@H]2C(=O)N(CCCOC(C)C)CC(=O)N[C@@H](C)C1=O the data give PAMPA 13 × 10^-6 cm/s.

Again, the 2 entries with the lowest PAMPA:

{"smiles": "CCCC[C@@H]1NC(=O)[C@H](CC(C)C)NC(=O)CN(CC2CCOCC2)C(=O)[C@@H](Cc2ccccc2)NC(=O)CN(CC)C(=O)[C@@H]2CCCN2C1=O", "PAMPA (10^-6 cm/s)": "0.058"}
{"smiles": "CCCC[C@@H]1NC(=O)[C@H](CC(C)C)N(C)C(=O)CN(CC2CCCCC2)C(=O)[C@H](Cc2ccccc2)NC(=O)CN(Cc2ccc3c(c2)OCO3)C(=O)[C@@H]2CCCN2C1=O", "PAMPA (10^-6 cm/s)": "0.22"}